Data: patent US12178827B2, “Nicotinyl riboside compounds and their uses” (MitoPower LLC, priority 2018, dated 2024)
“And” between values parts separate entries of the source, which are not always exact repeats. Equal entries are not always repeated.

Assays:
Jurkat cells [1] = experiment: MNNG-induced cytotoxicity / cytoprotection (CellTiter-Blue Cell Viability Assay), Jurkat cells; details: no test compound
Jurkat cells [2] = experiment: NAD+ level after MNNG-induced NAD+ depletion (NAD/NADH Glo assay), Jurkat cells; type: cell-based; details: no test compound

Compound: CN(N=O)C(=N)N[N+](=O)[O-]
- cytotoxicity at 4 hr (Jurkat cells [1]; 75 μM MNNG for 30 min): 87%
- cytotoxicity at 4 hr (Jurkat cells [1]; 150 μM MNNG for 30 min): 63.2%
- cytotoxicity at 4 hr (Jurkat cells [1]; 200 μM MNNG for 30 min): 78%
- depletion of NAD+ level at 4 hr (Jurkat cells [2]; 75 μM MNNG for 30 min): 92.1%
- depletion of NAD+ level at 4 hr (Jurkat cells [2]; 100 μM MNNG for 30 min): 76.9% and 94%
